Experimental data from ChEMBL document CHEMBL4130348, “Structure-activity relationship investigation for benzonaphthyridinone derivatives as novel potent Bruton's tyrosine kinase (BTK) irreversible inhibitors” (Eur J Med Chem, 2017).

Amino acid sequences for entries named in this document (tags omitted). A change or cut given only in a name is not applied to a line headed by its entry.
UniProt Q06187: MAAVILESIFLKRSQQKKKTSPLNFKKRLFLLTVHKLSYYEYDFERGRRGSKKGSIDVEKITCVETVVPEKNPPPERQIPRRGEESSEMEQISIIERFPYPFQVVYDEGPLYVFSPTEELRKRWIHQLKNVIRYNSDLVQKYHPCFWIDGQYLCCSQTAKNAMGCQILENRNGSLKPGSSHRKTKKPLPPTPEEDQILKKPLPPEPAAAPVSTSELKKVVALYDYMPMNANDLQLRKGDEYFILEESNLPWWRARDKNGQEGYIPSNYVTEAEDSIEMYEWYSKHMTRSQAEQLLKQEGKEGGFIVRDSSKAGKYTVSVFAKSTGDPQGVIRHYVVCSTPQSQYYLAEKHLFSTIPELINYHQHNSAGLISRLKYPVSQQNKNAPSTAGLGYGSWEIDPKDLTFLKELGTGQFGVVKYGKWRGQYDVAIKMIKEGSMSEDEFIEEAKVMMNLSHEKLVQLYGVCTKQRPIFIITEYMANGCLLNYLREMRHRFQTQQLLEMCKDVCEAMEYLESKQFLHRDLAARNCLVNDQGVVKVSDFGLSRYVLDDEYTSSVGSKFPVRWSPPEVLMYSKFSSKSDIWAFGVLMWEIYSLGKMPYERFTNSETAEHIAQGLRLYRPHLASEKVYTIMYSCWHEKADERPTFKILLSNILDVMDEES

Target: Tyrosine-protein kinase BTK (Homo sapiens, UniProt Q06187)
Test: Irreversible inhibition of recombinant full length His-tagged human BTK expressed in baculovirus expression system using poly (4:1 Glu, Tyr) as substrate preincubated for 2 to 60 mins followed by substrate addition measured after 1 hr by ADP-glo assay

Ki: 3.2 nM
SMILES: C=CC(=O)Nc1cc(-n2c(=O)ccc3cnc4ccc(-c5ccc(NS(C)(=O)=O)cc5)cc4c32)ccc1C
